From US10544104B2 (dated 2020)

Tested on: P. falciparum NF54 gametocytes
Format: cell-based, Plasmodium falciparum

In the case of `CCOc1ccc2cc(-c3nn(CC4CCNCC4)c4ncnc(N)c34)ccc2c1` [Compound 29, 3-(6-ethoxynaphthalen-2-yl)-1-(piperidin-4-ylmethyl)-1H-pyrazolo[3,4-d]pyrimidin-4-amine], the “sporozoite load diminished relative to untreated controls” value (100 nM) was 86% and the “suppression of exflagellation events, repeat experiment” value (0.3 μM) was over 90%.
